Protein sequences, listed by entry. Tags and fused reporters are not part of them.
UniProt O75907, whole entry: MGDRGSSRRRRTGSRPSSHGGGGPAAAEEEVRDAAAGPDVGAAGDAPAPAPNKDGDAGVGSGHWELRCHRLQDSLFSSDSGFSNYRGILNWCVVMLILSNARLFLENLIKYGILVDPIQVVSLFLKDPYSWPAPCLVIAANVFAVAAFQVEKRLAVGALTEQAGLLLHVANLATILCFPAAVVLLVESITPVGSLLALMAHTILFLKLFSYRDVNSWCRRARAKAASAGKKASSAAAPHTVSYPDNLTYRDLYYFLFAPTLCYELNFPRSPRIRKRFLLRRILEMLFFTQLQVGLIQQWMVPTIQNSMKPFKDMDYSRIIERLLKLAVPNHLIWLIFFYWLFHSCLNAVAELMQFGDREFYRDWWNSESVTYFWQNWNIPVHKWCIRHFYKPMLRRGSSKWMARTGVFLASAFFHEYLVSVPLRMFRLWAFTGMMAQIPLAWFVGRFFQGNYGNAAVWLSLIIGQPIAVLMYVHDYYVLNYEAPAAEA

According to patent US9809604B2, “DGAT1 inhibitor and preparation method and use thereof” (Qingdao Huanghai Pharmaceutical Co., Ltd., priority 2013, dated 2017):

Target: human DGAT1 (Homo sapiens, UniProt O75907)
Assay: Human DGAT1 IC50 enzyme assay (Flashplate, 14C-labeled acyl-CoA)
Type: biochemical
[1] = read-out: hDGAT1 IC50(nM) Average, average of first and second
[2] = read-out: hDGAT1 IC50(nM) First, first determination
[3] = read-out: hDGAT1 IC50(nM) Second, second determination

SMILES | IC50 [1] [nM] | IC50 [2] [nM] | IC50 [3] [nM]
Cc1cc(N2CCOc3ncnc(N)c3C2=O)cc(C)c1-c1cn(CC(C)(F)F)nc1C | 38 | 46.1 | 29.8
COC(C)(C)Cn1cc(-c2c(C)cc(N3CCOc4ncnc(N)c4C3=O)cc2C)c(C)n1 | 91.7 | 104 | 79.1

Like-named read-outs stand apart in the source and are kept apart here.
